# Data: US20240285589A1, “TREATMENT USING AN ANTIVIRAL COMPOUND AND NITAZOXANIDE” (priority 2021, published 2024)
# Tested on: Epstein-Barr virus and Herpes 1 virus
# Test: Case Study 6: person with severe depression, IBS, brain fog, fatigue, headaches, SPECT
# Format: in vivo, human
# Conditions: patient history before antiviral treatment
# Source text: Scale illustrates levels of perfusion in a different manner from FIG. 1. The dark grey central portion of the scale illustrates statistically normal perfusion in a given area relative to a normative database. Areas of progressively lighter grey to white illustrate areas which are 2 standard deviation (SD), 3 SD, and 4 SD below the mean of the normative database, respectively.
# A person presented with a history of depression since their teen years. They were severely depressed upon presentation (Quick Inventory of Depressive Symptomatology scale 26/27) and spent most of their time in their bedroom in the basement of their parent's house. They had withdrawn from college and had never held a full-time job. Their condition was complicated by irritable bowel syndrome, brain fog, pervasive fatigue, and headaches. […] The patient also underwent a functional brain scan (single photon emission computed tomography—SPECT). […] The patient was started on the antiviral valacyclovir at 1000 mg two times per day orally. […] NTZ was added at a dose of 500 mg two times per day orally. After one month, the dose of NTZ was increased to 1000 mg two times per day orally.
compound,measurement,value
CNC1(c2ccccc2Cl)CCCCC1=O (stereo not shown) [ketamine],response of depression to earlier therapy,failed to respond
